Measurements as given in PMC9394474 (Viruses, 2022).
Where two headings read alike, the source gives them in different places.

Experiments:
[1] = target: human hisTRIM7-PRYSPRY (Homo sapiens, UniProt Q9C029); assay: ITC binding to human TRIM7 PRYSPRY (wild type); details: for N (stoichiometry): for hGYG1-GN1 (**) concentration of GYG1 dimer used in the analysis
[2] = target: hisTRIM7-PRYSPRY F426A (Homo sapiens, UniProt Q9C029, F426A); details: ITC, 25 °C, TRIM7 20 µM, peptide 400 µM; NB = no binding
[3] = target: hisTRIM7-PRYSPRY N383A (Homo sapiens, UniProt Q9C029, N383A); details: ITC, 25 °C, TRIM7 20 µM, peptide 400 µM; NB = no binding
[4] = target: hisTRIM7-PRYSPRY L423A (Homo sapiens, UniProt Q9C029, L423A); details: ITC, 25 °C, TRIM7 20 µM, peptide 400 µM; NB = no binding; * potential weak binding with KD estimated >100 µM
[5] = target: hisTRIM7-PRYSPRY N438A (Homo sapiens, UniProt Q9C029, N438A); assay: biochemical; type: binding
[6] = target: hisTRIM7-PRYSPRY R385A (Homo sapiens, UniProt Q9C029, R385A); details: ITC, 25 °C, TRIM7 20 µM, peptide 400 µM; NB = no binding
[7] = target: hisTRIM7-PRYSPRY T384A (Homo sapiens, UniProt Q9C029, T384A); assay: biochemical; type: binding
[8] = target: hisTRIM7-PRYSPRY Q436A (Homo sapiens, UniProt Q9C029, Q436A); details: ITC, 25 °C, TRIM7 20 µM, peptide 400 µM; NB = no binding

SMILES: CC[C@H](C)[C@H](NC(=O)[C@@H](N)[C@@H](C)O)C(=O)N[C@@H](CCC(=O)O)C(=O)N[C@@H](C)C(=O)N[C@@H](CC(C)C)C(=O)N[C@@H](Cc1ccccc1)C(=O)N[C@@H](CCC(N)=O)C(=O)O [CVB-2C208-214]
- Kd [1]: 11.2 ± 4.2 µM
- DH ([1]; ITC, 25 °C, TRIM7 20 µM): -12.6 ± 3.58 kcal/mol
- N (stoichiometry) ([1]; ITC, 25 °C): 0.90±0.2
- KD [2]: No binding
- Kd [2]: > 100 µM
- KD [3]: No binding
- Kd [3]: > 100 µM
- KD [4]: No binding
- Kd [4]: > 100 µM
- Kd [5]: 7.82 ± 1.18 µM
- DH ([5]; ITC, 25 °C): -10.4 ± 0.91 kcal/mol
- N (stoichiometry) ([5]; ITC, 25 °C): 0.92±0.06
- KD [6]: No binding
- Kd [6]: > 100 µM
- Kd [7]: 21.2 ± 5.84 µM
- DH ([7]; ITC, 25 °C, N fixed to 1): -6.12 ± 0.704 kcal/mol
- KD [8]: No binding
- Kd [8]: > 100 µM

SMILES: CC(C)C[C@H](NC(=O)CNC(=O)[C@H](Cc1ccccc1)NC(=O)[C@H](CC(=O)O)NC(=O)[C@H](CC(=O)O)NC(=O)[C@@H](N)Cc1c[nH]cn1)C(=O)N[C@@H](CCC(N)=O)C(=O)O [MNV1-NS3700-706]
- Kd [1]: 14.7 ± 4.3 µM
- Kd [6]: > 100 µM

SMILES: C[C@H](N)C(=O)N[C@@H](C)C(=O)N[C@@H](C)C(=O)N[C@@H](C)C(=O)N[C@@H](C)C(=O)N[C@@H](C)C(=O)N[C@@H](C)C(=O)O [polyA]
- KD ([1]; pH 8): no binding
- Kd ([1]; pH 8): > 100 µM

SMILES: CC[C@H](C)[C@H](NC(=O)[C@@H](N)[C@@H](C)O)C(=O)N[C@@H](CCC(=O)O)C(=O)N[C@@H](C)C(=O)N[C@@H](CC(C)C)C(=O)N[C@@H](Cc1ccccc1)C(=O)N[C@@H](C)C(=O)O [TIEALFA]
- Kd ([1]; ITC, one-site model, 25 °C, 150 mM NaCl, 50 mM Tris pH 8, 1 mM DTT, 0-1% DMSO, TRIM7 20 µM, ligand 400 µM (Ac-LQ, Ac-LLQ 800 µM; LQ 2000 µM), NB = no binding): > 100 µM

SMILES: CC(C)C[C@H](NC(=O)[C@H](C)NC(=O)[C@H](CCC(=O)O)NC(=O)[C@@H](N)CC(C)C)C(=O)N[C@@H](CCC(=O)O)C(=O)N[C@@H](Cc1ccccc1)C(=O)N[C@@H](CCC(N)=O)C(=O)O [MNV1-NS61172-1178]
- Kd [1]: 8.7 ± 3.2 µM
- DH ([1]; ITC, 25 °C, TRIM7 20 µM): -11.7 ± 2.25 kcal/mol
- N (stoichiometry) ([1]; ITC, 25 °C): 1.13±1.62
- KD [6]: No binding
- Kd [6]: > 100 µM
